Patent US20240398943A1, “METHODS OF TREATING CANCER AND THE PHARMACEUTICAL COMPOSITIONS THEREOF” (SYSTIMMUNE, INC., priority 2021, published 2024)

Key:
[1] = system: FaDu cells (wild type EGFR) tumor xenograft
Method: (§1) Xenotransplantation of human cancer cells into immunocompromised mice is a gold-standard model used for pre-clinical oncology research and testing of anti-cancer therapies. In general, human cancer cell lines are injected below the skin of the mouse. […] The primary outcome parameter is growth inhibition by the drug, for which tumor size is measured over time, often externally with calipers. After the tumor reaches a certain size, the mice are euthanized. Drug effects on the tumor are further analyzed on a tissue level or molecular level (e.g., DNA, proteins). The primary outcome parameter of a xenograft model for testing drug efficacy is the growth of the treated tumor versus control. Typically, xenograft tumors grow from 100 mm^3 (6 mm diameter) to 1000 mm^3 (12 mm diameter) in several weeks. The growth rate often declines with larger tumor sizes, as opposed to exponential growth in (2D) in vitro experiments. Tumor growth inhibition varies per drug and implanted cell line. The effect of therapeutics can be directly on tumor cells, or indirectly via the microenvironment such as the inhibition of vessel formation, or both.
(§2) The experiment animals used were of Balb/c-nu mouse, female, ages 5^˜7 weeks, weight 17^˜21 g.
To establish xenograft model of HNSCC, human head and neck cancer cells, FaDu cells, were transplanted into the mice to establish the xenograft model of HNSCC. FaDu is a cell line isolated from a hypopharyngeal tumor of a squamous cell carcinoma patient, which expresses wild type EGFR (ATCC).
(§3) Each of the three human cancer cell lines was cultured in RPMI1640 medium containing 10% fetal bovine serum, collected in the exponential growth phase, resuspended in PBS to a suitable concentration, and used for subcutaneous tumor implantation in mice.
When the tumor grew to an average volume of about 230 mm3, randomly grouped according to tumor size and mouse weight to establish human head and neck squamous cell carcinoma cells FaDu xenograft model.
(§4) Tumor volume (mm3) V=½×(a×b)^2, where a represents the long diameter and b represents the short diameter. Relative tumor volume (RTV), RTV=Vt/V0, where V0 is the tumor volume at time 0 and Vt is the tumor volume after treatment at time t. The T/C value (%) is an indicator of the tumor response to treatment and is the most used evaluation indicator. T/C %=TRTV/CRTV×100%, where TRTV is treatment group average RTV and CRTV is control group average RTV. The T/C value (%) can also be calculated as T/C %=TTW/CTW×100%, where TTW is the average tumor weight at the end of the treatment group experiment and CTW is the average tumor weight at the end of the control group experiment.

[2] = system: HCC827_936 cells (EGFR exon19del and exon20ins) tumor xenograft; conditions: for T/C / TGI / Tumor volume x ± SD: Day 31; for mice died before D31: 5 mice per group
Method: as §1, §2
To establish xenograft model of NSCLC, two lung cancer cell lines expressing were used. Human lung adenocarcinoma cell line HCC827_936 was clonally derived from HCC827 cell line isolated from NSCLC tissue of a patient (ATCC). HCC827_936 cells express EGFR mutations of exon19del and exon20ins. The other lung cancer cell line, NCI-H1975 cells (ATCC), express the EGFR L858R/T790M double mutation.
as §3
When the tumor grew to an average volume of about 163 mm^3, randomly grouped according to tumor size and mouse weight to establish HCC827_936 xenograft model.
as §4, with “(mm^3)” for “(mm3)”

[3] = system: HCC827_936 cells tumor xenograft; assay: SI-B001 and Cis/Pem combination therapy in HCC827_936 xenograft model (Example 5); format: in vivo; conditions: for T/C / TGI / Tumor volume x ± SD: Day 24; for mice died before D24: 5 mice per group
Excerpt: HCC827_936 cells express EGFR mutations of exon19del and exon20ins.

[4] = SI-B001 9 mg/kg/wk i.v. QW, 9 mg/kg
[5] = SI-B001 16 mg/kg/wk i.v. QW, 16 mg/kg
[6] = SI-B001 28 mg/kg/wk i.v. QW, 28 mg/kg
[7] = all dose groups of the treatment

In the case of “Cetuximab: monoclonal antibody targeting the extracellular domain of EGFR”, the TGI ([1]; Cetuximab 10.5 mg/kg on day 0 then three doses of 6.5 mg/kg weekly, i.v.) is reported as 74.27%.

For “SI-B001: bispecific tetravalent anti-EGFR/HER3 monoclonal antibody (SEQ ID NO: 1-5)”, the T/C ([2]; SI-B001 9 mg/kg/wk i.v. QW) was 110.7%, the TGI [2, 4] was −10.71% and −10.7% and the “Tumor volume x ± SD” value [2, 4] was 789.65 mm^3 and 789.7 ± 140.7 mm^3. The T/C ([2]; SI-B001 16 mg/kg/wk i.v. QW) was 75.4%, the TGI [2, 5] was 24.64% and 24.6% and the “Tumor volume x ± SD” value [2, 5] was 601.42 mm^3 and 601.4 ± 112.9 mm^3. The T/C ([2]; SI-B001 28 mg/kg/wk i.v. QW) was 26.8%, the TGI [2, 6] was 73.2% and the “Tumor volume x ± SD” value [2, 6] was 203.92 mm^3 and 203.9 ± 91.3 mm^3. For the same substance, the “mice died before D31” value ([2]; SI-B001 single-agent high dose (28 mg/kg)) was 3, the “mice died before D31” value ([2]; SI-B001 single-agent low dose (9 mg/kg)) was 1 and the “mice died before D31” value ([2]; SI-B001 single-agent middle dose (16 mg/kg)) was 3. The TGI ([1]; SI-B001 single agent 6 mg/kg i.v. QW) was 96.76%, the TGI ([1]; SI-B001 single agent 9 mg/kg i.v. QW) was 97.9% and the TGI ([1]; SI-B001 single agent 12 mg/kg i.v. QW) was 98.8%. For the same substance, the “body weight / weight loss” value [1, 7] was “no significant weight loss”, the “toxicity / safety assessment” value [1, 7] was “low toxicity and good safety” and the “death of mice before the end of the experiment” value ([1]; all dose groups of the treatment, 5 mice per group) was “no death”. The T/C ([3]; SI-B001 9 mg/kg/wk i.v. QW) was 89.2%, the TGI [3, 4] was 10.8% and the “Tumor volume x ± SD” value [3, 4] was 682 mm^3 and 682.7 ± 174.7 mm^3. For the same substance, the T/C ([3]; SI-B001 16 mg/kg/wk i.v. QW) was 76.9%, the TGI [3, 5] was 23.1% and the “Tumor volume x ± SD” value [3, 5] was 588.1 mm^3 and 588.1 ± 101.7 mm^3. For the same substance, the T/C ([3]; SI-B001 28 mg/kg/wk i.v. QW) was 26.9%, the TGI [3, 6] was 73.1% and the “Tumor volume x ± SD” value [3, 6] was 205.7 mm^3 and 205.7 ± 76.1 mm^3. For the same substance, the “mice died before D24” value ([3]; SI-B001 single-agent high dose group #5 (28 mg/kg)) was 2, the “mice died before D24” value ([3]; SI-B001 single-agent low dose group #3 (9 mg/kg)) was 1 and the “mice died before D24” value ([3]; SI-B001 single-agent middle dose group #4 (16 mg/kg)) was 2.

Several values for one entry are separate records, joined by “and”; a condition that tells them apart may be missing. Identical values can stand only once. Like-named read-outs stand apart in the source and are kept apart here.
